The subject of the assay is bacterial isolates. The experiment in a line: microbe, parasite or virus in culture. Conditions: Klebsiella pneumoniae, read-out: Ceftriaxone MIC Alone, K. pneumoniae KP003.

Structures are written as SMILES. In brackets after ≈: the same amount, converted by molar mass.

On to `CO/N=C(\C(=O)N[C@@H]1C(=O)N2C(C(=O)O)=C(CSc3nc(=O)c(=O)[nH]n3C)CS[C@H]12)c1csc(N)n1` [Ceftriaxone], for which the MIC worked out at 8 µg/mL (≈ 14.4 µM).
